One test addresses T1, human PAC1 receptor (Homo sapiens, UniProt P41586).
T1 construct: SHSY-5Y (human neuroblastoma cell line) and RG-2 (rat glioma cell line) cells endogenously express human and rat PAC1 receptors, respectively; endogenous in cells; host or cells: SHSY-5Y human neuroblastoma cells
T1 sequence (P41586 21-468): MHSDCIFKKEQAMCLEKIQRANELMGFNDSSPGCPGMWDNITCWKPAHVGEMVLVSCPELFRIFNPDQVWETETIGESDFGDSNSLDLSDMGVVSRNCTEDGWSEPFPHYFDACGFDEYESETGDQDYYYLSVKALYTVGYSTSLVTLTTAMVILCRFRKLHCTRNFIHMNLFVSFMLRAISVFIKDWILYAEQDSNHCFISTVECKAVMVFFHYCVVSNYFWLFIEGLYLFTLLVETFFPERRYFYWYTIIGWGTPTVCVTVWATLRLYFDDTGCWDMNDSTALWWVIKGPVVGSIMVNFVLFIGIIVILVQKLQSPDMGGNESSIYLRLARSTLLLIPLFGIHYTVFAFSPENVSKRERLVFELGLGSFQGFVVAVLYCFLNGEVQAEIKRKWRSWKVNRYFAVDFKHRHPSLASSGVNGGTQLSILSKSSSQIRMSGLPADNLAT
Put plainly: LANCE Ultra cAMP accumulation antagonist assay in SHSY-5Y cells.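 Also: inhibition of cAMP accumulation evoked by PAC1 agonist at its EC80 in SHSY-5Y cells endogenously expressing receptor, 30 min preincubation then 15 min agonist, TR-FRET readout.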 Format: cell-based. (In general: TR-FRET usually uses a lanthanide donor and a delayed reading to cut background.)

The next test deals with T2, rat PAC1 receptor (Rattus norvegicus, UniProt P32215).
T2 construct: SHSY-5Y (human neuroblastoma cell line) and RG-2 (rat glioma cell line) cells endogenously express human and rat PAC1 receptors, respectively; endogenous in cells; host or cells: RG-2 rat glioma cells
T2 sequence (P32215 20-523): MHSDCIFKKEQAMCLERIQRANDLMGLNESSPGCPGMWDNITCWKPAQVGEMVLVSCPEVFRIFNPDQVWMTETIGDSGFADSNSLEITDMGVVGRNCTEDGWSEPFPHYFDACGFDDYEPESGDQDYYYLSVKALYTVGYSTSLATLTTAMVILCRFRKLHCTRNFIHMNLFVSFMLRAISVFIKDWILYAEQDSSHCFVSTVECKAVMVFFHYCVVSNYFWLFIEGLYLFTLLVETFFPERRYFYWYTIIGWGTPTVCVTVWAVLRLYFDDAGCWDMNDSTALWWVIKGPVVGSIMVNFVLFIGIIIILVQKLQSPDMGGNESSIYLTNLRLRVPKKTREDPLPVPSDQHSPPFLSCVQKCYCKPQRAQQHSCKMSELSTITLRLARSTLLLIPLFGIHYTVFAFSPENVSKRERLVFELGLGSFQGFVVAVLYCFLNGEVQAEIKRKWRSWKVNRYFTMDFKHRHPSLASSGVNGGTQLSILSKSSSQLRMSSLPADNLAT
Put plainly: LANCE Ultra cAMP accumulation antagonist assay in RG-2 cells.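 Also: RG-2 rat glioma cells endogenously expressing PAC1, test peptide preincubated 30 min, then PAC1 agonist added at its EC80 for 15 min, cAMP accumulation read by LANCE Ultra.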 Format: cell-based.

Consider six compounds from patent publication US20210395313A1, “PEPTIDE PAC1 ANTAGONISTS” (AMGEN INC., priority 2017, published 2021).

As for `CC[C@H](C)[C@H](NC(=O)[C@H](C)NC(=O)[C@H](CCCCN)NC(=O)[C@H](CCCNC(=N)N)NC(=O)[C@H](Cc1ccccc1)NC(=O)[C@H](CCC(N)=O)NC(=O)[C@@H]1CSSC[C@H](N)C(=O)N[C@@H](CC(=O)O)C(=O)N[C@@H](C)C(=O)N[C@@H]([C@@H](C)O)C(=O)N1)C(=O)N[C@@H](CC(=O)O)C(=O)N[C@@H](CC(=O)O)C(=O)N[C@H]1CSSC[C@@H](C(=O)N[C@@H](CCSC)C(=O)N[C@@H](CCCCN)C(=O)N[C@@H](CCC(N)=O)C(=O)N[C@@H](CCCCN)C(=O)N[C@@H](CCCCN)C(=O)N[C@@H](CCCCN)C(=O)N[C@@H](CCC(=O)O)C(=O)N[C@@H](Cc2c[nH]c3ccccc23)C(=O)N[C@@H](CCCCN)C(=O)N[C@@H](C)C(=O)N[C@@H](CC(N)=O)C(=O)O)NC(=O)C(C)(C)NC(=O)[C@H](CCCCN)NC(=O)[C@H](Cc2ccccc2)NC(=O)[C@H](C(C)C)NC(=O)[C@H](CO)NC(=O)CNC(=O)[C@@H]2CCCN2C(=O)[C@H](C(C)C)NC(=O)[C@H](CC(N)=O)NC(=O)[C@H](CO)NC(=O)[C@H](Cc2c[nH]cn2)NC(=O)[C@H](Cc2c[nH]cn2)NC(=O)[C@H](C)NC(=O)[C@H](CCC(N)=O)NC(=O)[C@H](CCCCN)NC(=O)[C@H](CCC(N)=O)NC1=O` [compound 162], the IC50 (as a rule, the concentration at which inhibition is half-maximal) on human PAC1 receptor was 1 to 100 nM; against rat PAC1 receptor, 0.01 to 1 nM.
On to `CC[C@H](C)[C@H](NC(=O)[C@H](C)NC(=O)[C@H](CCCCN)NC(=O)[C@H](CCCNC(=N)N)NC(=O)[C@H](Cc1ccccc1)NC(=O)[C@H](CCC(N)=O)NC(=O)[C@@H]1CSSC[C@H](N)C(=O)N[C@@H](CC(=O)O)C(=O)N[C@@H](C)C(=O)N[C@@H]([C@@H](C)O)C(=O)N1)C(=O)N[C@@H](CC(=O)O)C(=O)N[C@@H](CC(=O)O)C(=O)N[C@H]1CSSC[C@@H](C(=O)N[C@@H](CCSC)C(=O)N[C@@H](CCCCN)C(=O)N[C@@H](CCC(N)=O)C(=O)N[C@@H](CCCCN)C(=O)N[C@@H](CCCCN)C(=O)N[C@@H](CCCCN)C(=O)N[C@@H](CCC(=O)O)C(=O)N[C@@H](Cc2ccccc2)C(=O)N[C@@H](CCCCN)C(=O)N[C@@H](C)C(=O)NCC(N)=O)NC(=O)C(C)(C)NC(=O)[C@H](CCCCN)NC(=O)[C@H](Cc2ccccc2)NC(=O)[C@H](C(C)C)NC(=O)CNC(=O)[C@@H]2CCCN2C(=O)[C@H](C(C)C)NC(=O)[C@H](CC(N)=O)NC(=O)[C@H](CO)NC(=O)[C@H](Cc2c[nH]cn2)NC(=O)[C@H](Cc2c[nH]cn2)NC(=O)[C@H](C)NC(=O)[C@H](CCC(N)=O)NC(=O)[C@H](CCCCN)NC(=O)[C@H](CC(=O)O)NC1=O` [compound 238], for which the 50% inhibitory concentration (IC50) against human PAC1 receptor and on rat PAC1 receptor was 0.01 to 1 nM each time.
Turning to `CC[C@H](C)[C@H](NC(=O)[C@H](C)NC(=O)[C@H](CCCCN)NC(=O)[C@H](CCCNC(=N)N)NC(=O)[C@H](Cc1ccccc1)NC(=O)[C@H](CCC(N)=O)NC(=O)[C@@H]1CSSC[C@H](N)C(=O)N[C@@H](CC(=O)O)C(=O)N[C@@H](C)C(=O)N[C@@H]([C@@H](C)O)C(=O)N1)C(=O)N[C@@H](CC(=O)O)C(=O)N[C@@H](CC(=O)O)C(=O)N[C@H]1CSSC[C@@H](C(=O)N[C@@H](CCSC)C(=O)N[C@@H](CCCCN)C(=O)N[C@@H](CCC(N)=O)C(=O)N[C@@H](CCCCN)C(=O)N[C@@H](CCCCN)C(=O)N[C@@H](CCCCN)C(=O)N[C@@H](CCC(=O)O)C(=O)N[C@@H](Cc2ccccc2)C(=O)N[C@@H](CCCCN)C(N)=O)NC(=O)C(C)(C)NC(=O)[C@H](CCCCN)NC(=O)[C@H](Cc2ccccc2)NC(=O)[C@H](CO)NC(=O)[C@H](CO)NC(=O)[C@H](Cc2c[nH]cn2)NC(=O)[C@H](Cc2c[nH]cn2)NC(=O)[C@H](C)NC(=O)[C@H](CCC(N)=O)NC(=O)[C@H](CCCCN)NC(=O)[C@H](CCC(N)=O)NC1=O` [compound 243], the IC50 against human PAC1 receptor and on rat PAC1 receptor was 1 to 100 nM each time.
For `CC[C@H](C)[C@H](NC(=O)[C@H](C)NC(=O)[C@H](CCCCN)NC(=O)[C@H](CCCNC(=N)N)NC(=O)[C@H](Cc1ccccc1)NC(=O)[C@H](CCC(N)=O)NC(=O)[C@@H]1CSSC[C@H](N)C(=O)N[C@@H](CC(=O)O)C(=O)N[C@@H](C)C(=O)N[C@@H]([C@@H](C)O)C(=O)N1)C(=O)N[C@@H](CC(=O)O)C(=O)N[C@@H](CC(=O)O)C(=O)N[C@H]1CSSC[C@@H](C(=O)N[C@@H](CCSC)C(=O)N[C@@H](CCCCN)C(=O)N[C@@H](CCC(N)=O)C(=O)N[C@@H](CCCCN)C(=O)N[C@@H](CCCCN)C(=O)N[C@@H](CCCCN)C(=O)N[C@@H](CCC(=O)O)C(=O)N[C@@H](Cc2ccccc2)C(=O)N[C@@H](CCCCN)C(=O)N[C@@H](C)C(=O)NCC(=O)NCC(=O)N[C@@H](CO)C(=O)O)NC(=O)C(C)(C)NC(=O)[C@H](CCCCN)NC(=O)[C@H](Cc2ccccc2)NC(=O)[C@H](C(C)C)NC(=O)[C@H](CO)NC(=O)CNC(=O)[C@@H]2CCCN2C(=O)[C@H](C(C)C)NC(=O)[C@H](CC(N)=O)NC(=O)[C@H](CO)NC(=O)[C@H](Cc2c[nH]cn2)NC(=O)[C@H](Cc2c[nH]cn2)NC(=O)[C@H](C)NC(=O)[C@H](CCC(N)=O)NC(=O)[C@H](CCCCN)NC(=O)[C@H](CCC(N)=O)NC1=O` [compound 157], the IC50 was 1 to 100 nM on human PAC1 receptor and 0.01 to 1 nM against rat PAC1 receptor.
Consider `CCCC[C@H](NC(=O)[C@@H]1CSSC[C@H](NC(=O)[C@H](CC(=O)O)NC(=O)[C@H](CC(=O)O)NC(=O)[C@@H](NC(=O)[C@H](C)NC(=O)[C@H](CCCCN)NC(=O)[C@H](CCCNC(=N)N)NC(=O)[C@H](Cc2ccccc2)NC(=O)[C@H](CCC(N)=O)NC(=O)[C@@H]2CSSC[C@H](N)C(=O)N[C@@H](CC(=O)O)C(=O)N[C@@H](C)C(=O)N[C@@H]([C@@H](C)O)C(=O)N2)[C@@H](C)CC)C(=O)N[C@@H](CC(=O)O)C(=O)N[C@@H](CCCCN)C(=O)N[C@@H](CCC(N)=O)C(=O)N[C@@H](C)C(=O)N[C@@H](Cc2c[nH]cn2)C(=O)N[C@@H](Cc2c[nH]cn2)C(=O)N[C@@H](CO)C(=O)N[C@@H](CC(N)=O)C(=O)N[C@@H](CO)C(=O)N[C@@H](Cc2ccccc2)C(=O)N[C@@H](CCCCN)C(=O)N[C@@H](CCC(=O)O)C(=O)N1)C(=O)N[C@@H](CCCCN)C(=O)N[C@@H](CCC(N)=O)C(=O)N[C@@H](CCCCN)C(=O)N[C@@H](CCCCN)C(=O)N[C@@H](CCCCN)C(=O)N[C@@H](CCC(=O)O)C(=O)N[C@@H](Cc1ccccc1)C(=O)N[C@@H](CCCCN)C(N)=O` [compound 220], for which the IC50 against human PAC1 receptor and on rat PAC1 receptor was 1 to 100 nM each time.
On to `CC[C@H](C)[C@H](NC(=O)[C@H](C)NC(=O)[C@H](CCCCN)NC(=O)[C@H](CCCNC(=N)N)NC(=O)[C@H](Cc1ccccc1)NC(=O)[C@H](CCC(N)=O)NC(=O)[C@@H]1CSSC[C@H](N)C(=O)N[C@@H](CC(=O)O)C(=O)N[C@@H](C)C(=O)N[C@@H]([C@@H](C)O)C(=O)N1)C(=O)N[C@@H](CC(=O)O)C(=O)N[C@@H](CC(=O)O)C(=O)N[C@H]1CSSC[C@@H](C(=O)N[C@@H](CCSC)C(=O)N[C@@H](CCCCN)C(=O)N[C@@H](CCC(N)=O)C(=O)N[C@@H](CCCCN)C(=O)N[C@@H](CCCCN)C(=O)N[C@@H](CCCCN)C(=O)N[C@@H](CCC(=O)O)C(=O)N[C@@H](Cc2ccccc2)C(=O)N[C@@H](CCCCN)C(=O)N[C@@H](C)C(=O)NCC(N)=O)NC(=O)C(C)(C)NC(=O)[C@H](CCCCN)NC(=O)[C@H](Cc2ccccc2)NC(=O)[C@H](CO)NC(=O)CNC(=O)[C@@H]2CCCN2C(=O)[C@H](C(C)C)NC(=O)[C@H](CC(N)=O)NC(=O)[C@H](CO)NC(=O)[C@H](Cc2c[nH]cn2)NC(=O)[C@H](Cc2c[nH]cn2)NC(=O)[C@H](C)NC(=O)[C@H](CCC(N)=O)NC(=O)[C@H](CCCCN)NC(=O)[C@H](CCC(N)=O)NC1=O` [compound 216], for which the IC50 against human PAC1 receptor was in the range of 1 to 100 nM; on rat PAC1 receptor, 0.01 to 1 nM.
